{"sequences": {"note": "Protein sequences, listed by entry. Tags and fused reporters are not part of them. Lines headed by an entry give the natural chain unless they say otherwise; changes in a name come on top.", "UniProt P41145": "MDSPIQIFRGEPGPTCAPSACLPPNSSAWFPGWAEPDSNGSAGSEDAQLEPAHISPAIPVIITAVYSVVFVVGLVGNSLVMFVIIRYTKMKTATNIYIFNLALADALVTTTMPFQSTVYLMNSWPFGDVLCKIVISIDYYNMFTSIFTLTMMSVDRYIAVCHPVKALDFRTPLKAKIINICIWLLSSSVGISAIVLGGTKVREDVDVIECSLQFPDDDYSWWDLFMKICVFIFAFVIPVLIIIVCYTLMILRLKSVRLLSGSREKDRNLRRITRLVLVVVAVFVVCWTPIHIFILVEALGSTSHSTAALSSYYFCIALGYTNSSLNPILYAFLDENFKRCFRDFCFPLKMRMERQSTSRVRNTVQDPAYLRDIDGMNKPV", "UniProt P21554, whole entry": "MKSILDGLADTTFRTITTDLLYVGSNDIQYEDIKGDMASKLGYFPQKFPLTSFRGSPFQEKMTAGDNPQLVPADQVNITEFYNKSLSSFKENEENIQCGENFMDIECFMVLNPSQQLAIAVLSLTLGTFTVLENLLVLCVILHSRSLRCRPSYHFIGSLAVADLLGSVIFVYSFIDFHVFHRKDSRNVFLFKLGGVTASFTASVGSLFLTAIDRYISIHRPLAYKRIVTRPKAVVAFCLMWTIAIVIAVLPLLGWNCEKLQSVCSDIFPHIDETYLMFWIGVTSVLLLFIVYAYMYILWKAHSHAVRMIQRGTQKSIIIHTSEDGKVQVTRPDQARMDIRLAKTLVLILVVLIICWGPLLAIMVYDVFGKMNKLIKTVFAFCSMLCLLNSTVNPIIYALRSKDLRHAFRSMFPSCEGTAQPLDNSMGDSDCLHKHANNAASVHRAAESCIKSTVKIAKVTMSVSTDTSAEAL", "UniProt P35372, whole entry": "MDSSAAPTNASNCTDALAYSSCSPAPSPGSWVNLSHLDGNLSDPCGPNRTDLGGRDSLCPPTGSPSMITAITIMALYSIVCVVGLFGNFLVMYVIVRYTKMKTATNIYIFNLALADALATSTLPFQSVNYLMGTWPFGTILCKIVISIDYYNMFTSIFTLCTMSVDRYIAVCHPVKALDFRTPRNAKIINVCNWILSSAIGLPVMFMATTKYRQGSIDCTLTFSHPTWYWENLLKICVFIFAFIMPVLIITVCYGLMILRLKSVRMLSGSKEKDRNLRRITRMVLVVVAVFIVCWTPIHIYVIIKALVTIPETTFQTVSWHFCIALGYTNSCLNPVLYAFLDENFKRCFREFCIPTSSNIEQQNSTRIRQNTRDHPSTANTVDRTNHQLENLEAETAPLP"}, "source": "paper PMC6553708", "about": "(PLoS ONE, 2019)", "key": {"[1]": {"molecular_target": "T1, Kappa Opioid Receptor (KOR) (Homo sapiens, UniProt P41145)", "assay": "biochemical", "assay_type": "binding", "design": "membranes used"}, "[2]": {"molecular_target": "T1, Kappa Opioid Receptor (KOR)", "assay": "biochemical", "details": "KOR EC50 (35S-GTPγS)"}, "MOR": {"test_system": "MOR", "details": "ref [13]–[15]; cited from earlier work"}, "[3]": {"molecular_target": "T2, Cannabinoid Receptor Type 1 (CB1) (Homo sapiens, UniProt P21554)"}, "[4]": {"molecular_target": "T2, Cannabinoid Receptor Type 1 (CB1)", "assay": "biochemical"}, "Mu Opioid Receptor (MOR)": {"molecular_target": "Mu Opioid Receptor (MOR) (Homo sapiens, UniProt P35372)", "assay": "biochemical", "details": "read-out: MOR EMAX (35S-GTPγS)"}}, "note": "“And” between values parts separate entries of the source, which are not always exact repeats. Identical values can stand only once.", "data": [{"compound": "COc1ccc2c3c1O[C@H]1C(=O)CC[C@@]4(O)[C@@H](C2)N(C)CC[C@]314", "note": "[Oxycodone]", "values": [{"measurement": "Ki", "setting": "[1]", "value": "> 2000", "unit": "nM"}, {"measurement": "EC50", "setting": "[2]", "value": "> 2000", "unit": "nM"}]}, {"compound": "CN1CC[C@]23c4c5ccc(O)c4O[C@H]2[C@@H](O)C=C[C@H]3[C@H]1C5", "note": "[Morphine]", "values": [{"measurement": "operational efficacy τ in vitro", "setting": "MOR", "value": "3.3–5.2 and 5"}]}, {"compound": "CN1CC[C@]23c4c5ccc(O)c4O[C@H]2C(=O)CC[C@H]3[C@H]1C5", "note": "[Hydromorphone]", "values": [{"measurement": "Potential new finding: activity at CB1 (in words)", "setting": "[3]", "value": "CB1 partial agonist"}, {"measurement": "EC50", "setting": "[4]", "value": "> 2000", "unit": "nM"}, {"measurement": "Emax at 10 µM", "setting": "[4]; read-out: CB1 EMAX, in parentheses: maximum efficacy at 10 μM", "value": "> 41.5", "unit": "%"}, {"measurement": "Emax", "setting": "Mu Opioid Receptor (MOR)", "value": "94 ± 1", "unit": "%"}]}]}
